{
  "sequences": {"note": "Sequences of proteins named here, by UniProt entry; tags and fusion partners are left off.", "UniProt P09958, whole entry, looked up": "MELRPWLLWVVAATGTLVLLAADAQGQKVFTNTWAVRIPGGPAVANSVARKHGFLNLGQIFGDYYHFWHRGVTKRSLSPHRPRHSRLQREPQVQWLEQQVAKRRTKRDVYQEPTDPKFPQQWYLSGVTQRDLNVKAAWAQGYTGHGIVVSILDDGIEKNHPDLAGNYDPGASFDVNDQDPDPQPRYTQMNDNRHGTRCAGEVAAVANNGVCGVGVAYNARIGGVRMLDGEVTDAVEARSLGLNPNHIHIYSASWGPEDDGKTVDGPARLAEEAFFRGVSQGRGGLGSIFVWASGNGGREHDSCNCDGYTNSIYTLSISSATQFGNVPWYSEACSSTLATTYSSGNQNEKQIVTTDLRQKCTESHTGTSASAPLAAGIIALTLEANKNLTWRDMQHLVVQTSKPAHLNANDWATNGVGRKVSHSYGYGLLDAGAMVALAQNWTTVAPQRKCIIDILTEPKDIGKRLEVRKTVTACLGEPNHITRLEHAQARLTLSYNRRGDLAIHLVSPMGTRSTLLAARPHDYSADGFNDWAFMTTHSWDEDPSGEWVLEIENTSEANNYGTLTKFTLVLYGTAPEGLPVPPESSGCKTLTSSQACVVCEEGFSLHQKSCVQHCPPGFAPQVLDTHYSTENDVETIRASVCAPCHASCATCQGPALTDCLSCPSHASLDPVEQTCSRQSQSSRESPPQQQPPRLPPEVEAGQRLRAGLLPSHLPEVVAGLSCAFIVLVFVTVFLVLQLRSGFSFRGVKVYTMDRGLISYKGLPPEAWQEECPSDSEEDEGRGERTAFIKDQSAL"},
  "source": "PubChem BioAssay AID463115",
  "about": "(University of Pittsburgh Molecular Library Screening Center, 2010)",
  "note": "The list shows a part of the results, in another mix than the full data. The source made the active and inactive calls. Rule as the data show it: active = inhibition above about 25%; inactive = the rest.",
  "data": [
    {"target": "Furin (Homo sapiens) (UniProt P09958)", "assay": "human furin inhibitors, primary screen, biochemical, fluorescence intensity (AID 463115)", "conditions": "purified furin, fluorogenic substrate cleavage, stronger effect = higher value; at 30 µM unless noted", "values": [
      {"smiles": "CS(=O)(=O)c1cc([N+](=O)[O-])c2no[n+]([O-])c2c1", "inhibition": "inactive: 4.79%"},
      {"smiles": "O=C(O)COc1ccc([As](=O)(O)O)cc1[N+](=O)[O-]", "inhibition": "inactive: -9.79%"},
      {"smiles": "Nc1ccccc1[As](=O)(O)c1ccccc1", "inhibition": "inactive: -19.9%"},
      {"smiles": "ClCCSc1nnc(-c2cccnc2)o1", "inhibition": "inactive: -19.1% [at 20 µM]"},
      {"smiles": "CC(C)c1ccc(OP(=O)(Nc2ccccn2)Oc2ccccc2F)cc1", "note": "(stereo not drawn)", "inhibition": "inactive: -5.03%"},
      {"smiles": "O=[N+]([O-])c1cc([N+](=O)[O-])c(-c2ccn[nH]2)s1", "inhibition": "inactive: -8.66%"},
      {"smiles": "CCN(CC)C(=S)SC(NC=O)C(Cl)(Cl)Cl", "note": "(stereo not drawn)", "inhibition": "inactive: -21.1% [at 20 µM]"},
      {"smiles": "CC(C)NC(=O)NP(=O)(Oc1ccccc1)Oc1ccccc1", "inhibition": "inactive: -29.7%"},
      {"smiles": "C[As](=O)(O)c1cccc(C(=O)O)c1", "inhibition": "inactive: -12.2%"},
      {"smiles": "O=[As](O)(c1ccc(O)cc1)c1ccccc1O", "inhibition": "inactive: 0.371%"},
      {"smiles": "Cc1ccc(OP(=O)(Nc2ccc([N+](=O)[O-])cn2)Oc2ccc(C)cc2)cc1", "inhibition": "inactive: -7.57%"},
      {"smiles": "Cc1ccc2nc3c(c(C)c2c1)CC(C(Cl)Cl)S3", "note": "(stereo not drawn)", "inhibition": "inactive: -9.76%"},
      {"smiles": "COc1ccc(N/C(=N/P(=O)(N2CCOCC2)N2CCOCC2)N2CCOCC2)cc1", "inhibition": "inactive: -16.6%"},
      {"smiles": "Cc1c2c(nc3ccccc13)SC(C(Cl)Cl)C2", "note": "(stereo not drawn)", "inhibition": "inactive: -15.6%"},
      {"smiles": "Cc1cc(=O)[nH]c(N[N+](=O)[O-])n1", "inhibition": "inactive: -21.9%"},
      {"smiles": "O=C(OC1CN2CCC1CC2)C12CC3CC(CC(C3)C1)C2", "note": "(stereo not drawn)", "inhibition": "inactive: -1.16%"},
      {"smiles": "COc1cc(I)ccc1[As](=O)(O)O", "inhibition": "inactive: -18.2%"},
      {"smiles": "COc1ccc2nc(NP(=O)(c3ccccc3)c3ccccc3)sc2c1", "inhibition": "inactive: -15%"},
      {"smiles": "CCOC(=O)c1ccc(NC(=O)C(C)(CCl)SC)cc1", "note": "(stereo not drawn)", "inhibition": "inactive: -28.6%"},
      {"smiles": "CCC(C)N(CC(C)C)C(=S)SC(NC(C)=O)C(Cl)(Cl)Cl", "note": "(stereo not drawn)", "inhibition": "inactive: -6.21% [at 20 µM]"},
      {"smiles": "COP1(=S)c2c(C)nn(CCC#N)c2N=C(c2ccc(F)cc2)N1C", "note": "(stereo not drawn)", "inhibition": "inactive: -22.5% [at 20 µM]"},
      {"smiles": "O=C(COc1ccccc1)OC1CN2CCC1CC2", "note": "(stereo not drawn)", "inhibition": "inactive: -11.7%"},
      {"smiles": "CCOC(=O)Nc1cccc([As](=O)(O)O)c1", "inhibition": "inactive: -19.9%"},
      {"smiles": "Cc1cc(SC(NC=O)C(Cl)(Cl)Cl)ncn1", "note": "(stereo not drawn)", "inhibition": "inactive: -16.8%"},
      {"smiles": "O=P(Nc1ccccn1)(c1cccc2ccccc12)c1cccc2ccccc12", "inhibition": "inactive: -24.2%"},
      {"smiles": "O=[N+]([O-])c1ccc(Nc2ccc(Oc3ccc([N+](=O)[O-])cc3[N+](=O)[O-])cc2)c([N+](=O)[O-])c1", "inhibition": "inactive: -1.57%"},
      {"smiles": "CCOC(=O)Nc1ccc([As](=O)(O)O)c(O)c1", "inhibition": "inactive: -26.5%"},
      {"smiles": "Cc1cc(SC(NC(=O)c2ccccc2)C(Cl)(Cl)Cl)nc(C(C)C)n1", "note": "(stereo not drawn)", "inhibition": "inactive: -17.3%"}
    ]}
  ]
}
